Test results reported in PubChem BioAssay (NCI).
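Each compound was tested at five concentrations against cells in 96-well plates for 48 hours. TGI: concentration producing complete growth inhibition.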

Experiments:
Assay in all cases: NCI anticancer screen, dose series, 48 h
[1] = tested on: DLD-1 colon
[2] = tested on: KM12 colon
[3] = tested on: TK-10 renal
[4] = tested on: LOX IMVI melanoma
[5] = tested on: RXF 393 renal
[6] = tested on: OVCAR-3 ovarian
[7] = tested on: SN12C renal
[8] = tested on: SNB-78 CNS
[9] = tested on: NCI-H226 lung
[10] = tested on: UO-31 renal
[11] = tested on: OVCAR-4 ovarian
[12] = tested on: SK-OV-3 ovarian
[13] = tested on: NCI-H23 lung
[14] = tested on: SK-MEL-28 melanoma
[15] = tested on: RXF-631 renal
[16] = tested on: SNB-19 CNS
[17] = tested on: NCI-H322M lung
[18] = tested on: M14 melanoma
[19] = tested on: ACHN renal
[20] = tested on: HOP-92 NSCLC
[21] = tested on: SF-539 CNS
[22] = tested on: MOLT-4 leukemia
[23] = tested on: SW-620 colon
[24] = tested on: RPMI-8226 leukemia
[25] = tested on: DMS 273 small cell lung
[26] = tested on: HCT-116 colon
[27] = tested on: MALME-3M melanoma
[28] = tested on: 786-0 renal
[29] = tested on: IGROV1 ovarian
[30] = tested on: SK-MEL-5 melanoma
[31] = tested on: K-562 leukemia
[32] = tested on: CCRF-CEM leukemia
[33] = tested on: A549 NSCLC
[34] = tested on: SR leukemia
[35] = tested on: XF 498 CNS
[36] = tested on: CAKI-1 renal
[37] = tested on: U251 CNS
[38] = tested on: OVCAR-5 ovarian
[39] = tested on: SK-MEL-2 melanoma
[40] = tested on: HT29 colon
[41] = tested on: NCI-H460 lung
[42] = tested on: HOP-62 NSCLC
[43] = tested on: UACC-257 melanoma
[44] = tested on: SF-295 CNS
[45] = tested on: HL-60(TB) leukemia
[46] = tested on: LXFL 529 NSCLC
[47] = tested on: UACC-62 melanoma
[48] = tested on: M19-MEL melanoma
[49] = tested on: OVCAR-8 ovarian
[50] = tested on: SNB-75 CNS
[51] = tested on: NCI-H522 lung
[52] = tested on: HCC-2998 colon
[53] = tested on: A498 renal
[54] = tested on: SF-268 CNS

With `COc1ccc2c(c1Oc1ccccc1)C13CCN(C)C(C2)C12C=CC(C[C@H]2C(C)(C)O)C3` (some centres undefined) the TGI [1] was 32.2 µM, the TGI [2] was 30.2 µM and the TGI [3] was 28 µM. For the same compound, the TGI [4] was 19.3 µM, the TGI [5] was 23 µM and the TGI [6] was 27.8 µM. It also gave a TGI [7] of 28.7 µM, a TGI [8] of 28.4 µM and a TGI [9] of 35.5 µM. It also gave a TGI [10] of 15.2 µM, a TGI [11] of 28.8 µM and a TGI [12] of 27 µM. For the same compound, the TGI [13] was 32.4 µM, the TGI [14] was 30.6 µM and the TGI [15] was 34.4 µM. The TGI [16] was 26.5 µM, the TGI [17] was 27.6 µM and the TGI [18] was 29.7 µM. For the same compound, the TGI [19] was 27.7 µM, the TGI [20] was 15.3 µM and the TGI [21] was 27.5 µM. The TGI [22] was 18.3 µM, the TGI [23] was 28.4 µM and the TGI [24] was 24.7 µM. The TGI [25] was 35.5 µM, the TGI [26] was 29.8 µM and the TGI [27] was 32.7 µM. For the same compound, the TGI [28] was 28.9 µM, the TGI [29] was 32.1 µM and the TGI [30] was 28.3 µM. It also gave a TGI [31] of 19.9 µM, a TGI [32] of 24 µM and a TGI [33] of 31.7 µM. For the same compound, the TGI [34] was 22.7 µM, the TGI [35] was 22.3 µM and the TGI [36] was 22.3 µM. The TGI [37] was 24.2 µM, the TGI [38] was 31.7 µM and the TGI [39] was 31.7 µM. For the same compound, the TGI [40] was 13.8 µM, the TGI [41] was 25.5 µM and the TGI [42] was 31.4 µM. The TGI [43] was 31.1 µM, the TGI [44] was 28.4 µM and the TGI [45] was 22.7 µM. It also gave a TGI [46] of 26.4 µM, a TGI [47] of 28.6 µM and a TGI [48] of 32 µM. The TGI [49] was 29.6 µM, the TGI [50] was 19.6 µM and the TGI [51] was 31.5 µM. The TGI [52] was 8.65 µM, the TGI [53] was 28.6 µM and the TGI [54] was 25.8 µM.
